These results are taken from patent US7008911B2, “Non-surfactant solubilizing agent” (Ecolab, Inc., priority 2002, dated 2006).

Series [1] is described as follows: Alcohol amine added to aqueous PPh solution until single phase observed. The settings on record: aqueous PPh (34-37 wt % PPh, 39-42 wt % water), room temperature, Formulations B-E. In kind it is physicochemical.
The nature of series [2]: Alcohol amine added to aqueous EPh solution until single phase observed. In kind it is physicochemical. The settings on record: for amount added until a single phase solution was observed: 100 grams total, room temperature.

For the molecule `OCCN(CCO)CCO`, the “alcohol amine at single phase, normalized on total weight %” value in series [1] was found to be 27 wt %. Besides, the “amount added until a single phase solution was observed” value in series [2] (1 % Eph in H2O) was 4 Grams; in series [2] (2.5 % Eph in H2O) it was 14 Grams; in series [2] (5 % Eph in H2O), 28.9 Grams; in series [2] (10 % Eph in H2O), 42 Grams; in series [2] (15 % Eph in H2O), 47.8 Grams; in series [2] (20 % Eph in H2O), 47.9 Grams. Further, the “amount added until a single phase solution was observed” value in series [2] (30 % Eph in H2O) came to 45.1 Grams; in series [2] (50 % Eph in H2O), 37.1 Grams; in series [2] (75 % Eph in H2O) it was 28.5 Grams. The “alcohol amine at single phase, normalized to 100 weight % of water, alcohol amine and EPh” value in series [2] (listed as of Table 4 with 1 % Eph in H2O, Eph 1 wt % normalized) is recorded as 4 wt %; in series [2] (listed as of Table 4 with 2.5 % Eph in H2O, Eph 2 wt % normalized), 12 wt %; in series [2] (listed as of Table 4 with 5 % Eph in H2O, Eph 4 wt % normalized) it was 22 wt %; in series [2] (listed as of Table 4 with 10 % Eph in H2O, Eph 7-8 wt % normalized) it was 30 wt %; in series [2] (listed as of Table 4 with 15 % Eph in H2O, Eph 10-12 wt % normalized), 32 wt %; in series [2] (listed as of Table 4 with 20 % Eph in H2O, Eph 14-15 wt % normalized), 32 wt %. The “alcohol amine at single phase, normalized to 100 weight % of water, alcohol amine and EPh” value in series [2] (listed as of Table 4 with 30 % Eph in H2O, Eph 21-23 wt % normalized) is listed as 31 wt %; in series [2] (listed as of Table 4 with 50 % Eph in H2O, Eph 36-40 wt % normalized) it was 28 wt %.
